Like-named read-outs stand apart in the source and are kept apart here.
Experiments:
MRP1 [1] = target: T1, MRP1 (Homo sapiens, UniProt P33527); settings: calcein AM assay, DOX resistant H69AR cells
BCRP1 [2] = target: T2, BCRP1 (Homo sapiens, UniProt Q9UNQ0); assay: cell-based
P-glycoprotein (P-gp) = P-glycoprotein (P-gp) (Homo sapiens, UniProt P08183); assay: Measurement of P-glycoprotein activity: rhodamine 123 accumulation in MES-SA and MES-SA/Dx5 cells
MRP1 [3] = target: T1, MRP1; assay: cell-based
BCRP1 [4] = target: T2, BCRP1; settings: Hoechst 33342, mitoxantrone resistant MES-SA/MX2 cells
[5] = rhodamine 123 accumulation, doxorubicin resistant MES-SA/Dx5 cells

By UniProt entry, the sequences of proteins in these tests, tags left out. Where a name states a change or a piece, a line headed by the entry shows the natural chain unless it says otherwise.
UniProt P33527: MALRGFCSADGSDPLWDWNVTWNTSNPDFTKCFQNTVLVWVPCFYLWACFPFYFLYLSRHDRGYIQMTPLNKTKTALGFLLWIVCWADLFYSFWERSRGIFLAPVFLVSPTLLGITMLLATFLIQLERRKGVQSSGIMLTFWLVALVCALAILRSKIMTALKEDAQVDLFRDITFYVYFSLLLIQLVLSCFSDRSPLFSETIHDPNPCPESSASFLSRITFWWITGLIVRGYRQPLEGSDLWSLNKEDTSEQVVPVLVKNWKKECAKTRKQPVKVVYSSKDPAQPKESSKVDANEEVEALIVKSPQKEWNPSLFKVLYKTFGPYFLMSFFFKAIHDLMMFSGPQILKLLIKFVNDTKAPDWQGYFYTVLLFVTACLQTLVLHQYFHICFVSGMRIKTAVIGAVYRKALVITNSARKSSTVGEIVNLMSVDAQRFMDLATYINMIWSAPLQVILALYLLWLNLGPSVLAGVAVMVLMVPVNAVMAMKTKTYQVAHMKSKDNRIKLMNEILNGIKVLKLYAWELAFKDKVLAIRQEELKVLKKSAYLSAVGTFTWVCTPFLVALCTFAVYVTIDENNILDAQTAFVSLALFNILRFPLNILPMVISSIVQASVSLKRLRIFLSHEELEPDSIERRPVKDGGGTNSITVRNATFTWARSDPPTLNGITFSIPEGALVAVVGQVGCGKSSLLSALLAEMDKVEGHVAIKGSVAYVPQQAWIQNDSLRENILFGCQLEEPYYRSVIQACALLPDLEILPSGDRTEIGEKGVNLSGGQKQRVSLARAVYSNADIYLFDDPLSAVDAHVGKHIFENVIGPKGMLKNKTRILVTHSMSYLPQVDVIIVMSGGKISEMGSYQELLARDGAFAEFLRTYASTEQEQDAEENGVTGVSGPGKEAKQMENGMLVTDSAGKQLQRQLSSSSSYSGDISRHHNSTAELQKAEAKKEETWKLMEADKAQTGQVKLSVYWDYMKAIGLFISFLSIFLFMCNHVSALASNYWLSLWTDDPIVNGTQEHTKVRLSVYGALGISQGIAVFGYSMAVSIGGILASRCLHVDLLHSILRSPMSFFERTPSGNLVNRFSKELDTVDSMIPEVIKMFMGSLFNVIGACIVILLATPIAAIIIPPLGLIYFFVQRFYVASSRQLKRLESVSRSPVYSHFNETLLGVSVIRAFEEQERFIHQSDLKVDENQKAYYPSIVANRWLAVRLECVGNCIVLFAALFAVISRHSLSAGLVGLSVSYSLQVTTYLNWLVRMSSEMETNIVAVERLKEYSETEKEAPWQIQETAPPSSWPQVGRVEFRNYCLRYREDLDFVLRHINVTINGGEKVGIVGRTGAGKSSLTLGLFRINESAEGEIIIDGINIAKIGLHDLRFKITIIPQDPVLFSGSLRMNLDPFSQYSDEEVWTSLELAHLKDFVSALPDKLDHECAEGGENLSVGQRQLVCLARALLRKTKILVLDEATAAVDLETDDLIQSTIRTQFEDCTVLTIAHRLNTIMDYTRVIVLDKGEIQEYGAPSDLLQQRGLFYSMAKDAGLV
UniProt Q9UNQ0: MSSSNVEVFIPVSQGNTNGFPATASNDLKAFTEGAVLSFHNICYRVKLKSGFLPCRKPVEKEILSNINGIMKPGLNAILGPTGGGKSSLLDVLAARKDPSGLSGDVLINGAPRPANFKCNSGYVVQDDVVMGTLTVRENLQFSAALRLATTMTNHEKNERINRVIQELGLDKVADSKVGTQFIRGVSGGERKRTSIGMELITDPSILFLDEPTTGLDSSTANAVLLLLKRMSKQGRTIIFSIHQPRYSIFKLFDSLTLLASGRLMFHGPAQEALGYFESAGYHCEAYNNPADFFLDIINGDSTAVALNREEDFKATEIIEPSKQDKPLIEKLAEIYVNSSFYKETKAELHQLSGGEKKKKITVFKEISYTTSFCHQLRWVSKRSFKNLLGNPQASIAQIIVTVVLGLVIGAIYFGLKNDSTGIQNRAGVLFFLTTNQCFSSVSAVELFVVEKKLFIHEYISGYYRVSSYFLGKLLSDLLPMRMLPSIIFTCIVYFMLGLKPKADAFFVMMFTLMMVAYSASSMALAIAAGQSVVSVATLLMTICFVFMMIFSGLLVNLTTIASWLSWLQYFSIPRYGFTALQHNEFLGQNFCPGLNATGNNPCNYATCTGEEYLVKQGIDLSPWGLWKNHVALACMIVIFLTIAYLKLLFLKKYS
UniProt P08183, whole entry: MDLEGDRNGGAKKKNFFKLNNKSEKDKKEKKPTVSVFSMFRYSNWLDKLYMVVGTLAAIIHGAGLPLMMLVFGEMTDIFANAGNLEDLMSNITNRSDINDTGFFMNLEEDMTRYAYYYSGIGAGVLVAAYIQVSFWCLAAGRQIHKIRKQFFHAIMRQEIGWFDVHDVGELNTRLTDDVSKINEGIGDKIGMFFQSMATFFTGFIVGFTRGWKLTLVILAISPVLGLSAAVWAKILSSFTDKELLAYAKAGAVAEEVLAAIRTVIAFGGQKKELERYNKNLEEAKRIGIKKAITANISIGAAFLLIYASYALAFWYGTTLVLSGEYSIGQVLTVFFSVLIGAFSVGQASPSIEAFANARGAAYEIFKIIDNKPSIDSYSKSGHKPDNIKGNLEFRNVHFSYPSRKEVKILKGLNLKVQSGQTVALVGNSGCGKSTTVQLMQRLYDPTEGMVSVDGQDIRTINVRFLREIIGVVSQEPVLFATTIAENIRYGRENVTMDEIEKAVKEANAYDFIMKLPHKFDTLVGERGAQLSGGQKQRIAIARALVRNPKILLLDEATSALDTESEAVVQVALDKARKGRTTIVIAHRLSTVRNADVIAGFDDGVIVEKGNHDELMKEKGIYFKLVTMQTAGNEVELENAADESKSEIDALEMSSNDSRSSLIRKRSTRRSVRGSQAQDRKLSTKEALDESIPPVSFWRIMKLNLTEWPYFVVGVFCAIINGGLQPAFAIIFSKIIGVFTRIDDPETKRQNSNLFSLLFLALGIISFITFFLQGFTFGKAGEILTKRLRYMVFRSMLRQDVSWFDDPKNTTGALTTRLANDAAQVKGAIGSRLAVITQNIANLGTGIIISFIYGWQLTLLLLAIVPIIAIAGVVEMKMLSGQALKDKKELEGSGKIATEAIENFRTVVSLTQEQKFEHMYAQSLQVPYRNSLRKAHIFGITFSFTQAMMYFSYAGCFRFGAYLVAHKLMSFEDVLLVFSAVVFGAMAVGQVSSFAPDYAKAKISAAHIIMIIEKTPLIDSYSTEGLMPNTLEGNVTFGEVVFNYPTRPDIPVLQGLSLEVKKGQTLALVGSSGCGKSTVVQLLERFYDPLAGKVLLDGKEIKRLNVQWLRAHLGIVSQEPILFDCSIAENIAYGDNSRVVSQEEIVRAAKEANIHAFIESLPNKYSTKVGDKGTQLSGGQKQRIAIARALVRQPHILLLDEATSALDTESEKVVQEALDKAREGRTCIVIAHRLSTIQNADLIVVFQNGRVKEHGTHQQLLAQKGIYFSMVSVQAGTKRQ

Row | Compound | MDR, EC50, MRP1 (MRP1 [1]) | EC50 (BCRP1 [2]) [µM] | EC50 (P-glycoprotein (P-gp)) [µM] | EC50 (MRP1 [3]) [µM] | EC50 (P-glycoprotein (P-gp); read-out: MDR, EC50, P-gp, rhodamine 123 accumulation, doxorubicin resistant MES-SA/Dx5 cells) [µM] | EC50 (BCRP1 [4]; read-out: MDR, EC50, BCRP1) [µM] | MDR, EC50, P-gp (P-glycoprotein (P-gp); [5]) | MDR, EC50, BCRP1 (BCRP1 [4])
1 | COC(=O)c1c(C)nc2sc(C(=O)c3ccc(Cl)cc3)c(N)c2c1-c1cc(OC)c(OC)c(OC)c1 [Compound 9, 3-Amino-2-(4-chlorobenzoyl)-6-methyl-4-(3,4,5-trimethoxyphenyl)thieno[2,3-b]-pyridine-5-carboxylic acid methyl ester] | No effect | 1.4 ± 0.3 | 10.8 ± 1.6 | – | – | – | – | –
2 | CCOC(=O)c1c(C)nc2sc(C(=O)c3ccc(OC)cc3)c(N)c2c1-c1ccc(O)c(OC)c1 [Compound 16, 3-Amino-4-(4-hydroxy-3-methoxyphenyl)-2-(4-methoxybenzoyl)-6-methyl-thieno[2,3-b]pyridine-5-carboxylic acid ethyl ester] | – | 3.3 ± 1.1 | 5.3 ± 0.8 | 4.9 ± 0.2 | – | – | – | –
3 | CCOC(=O)c1c(C)nc2sc(C(=O)c3ccc(OC)cc3)c(N)c2c1-c1ccc(O)cc1 [Compound 14, 3-Amino-4-(4-hydroxyphenyl)-2-(4-methoxybenzoyl)-6-methylthieno[2,3-b]-pyridine-5-carboxylic acid ethyl ester] | – | 10.2 ± 1.6 | 26 ± 4.2 | 30.7 ± 6 | – | – | – | –
4 | CCOC(=O)c1c(C)nc2sc(C(=O)c3ccc(OC)cc3)c(N)c2c1-c1ccc(N(C)C)cc1 [Compound 29, 3-Amino-4-(4-dimethylaminophenyl)-2-(4-methoxybenzoyl)-6-methylthieno[2,3-b]-pyridine-5-carboxylic acid ethylester] | No effect | 0.5 ± 0.1 | 1.8 ± 0.6 | – | – | – | – | –
5 | CCCOCCOC(=O)c1c(C)nc2sc(C(=O)c3ccc(OC)cc3OC)c(N)c2c1-c1cc(OC)c(OC)c(OC)c1 | No effect | – | – | – | 0.6 ± 0.1 | 0.6 ± 0.1 | – | –
6 | CCCOCCOC(=O)c1c(C)nc2sc(C(=O)c3cc(OC)c(OC)c(OC)c3)c(N)c2c1-c1cc(OC)c(OC)c(OC)c1 | No effect | – | – | – | – | – | No effect | No effect
7 | CCOC(=O)c1c(C)nc2sc(C(=O)c3ccc(F)cc3)c(N)c2c1-c1cc(OC)c(OC)c(OC)c1 [Compound 22, 3-Amino-2-(4-fluorobenzoyl)-4-(3,4,5-trimethoxyphenyl)-6-methylthieno[2,3-b]-pyridine-5-carboxylic acid ethyl ester] | – | 1.1 ± 0.4 | 4 ± 0.2 | 8.6 ± 0.1 | – | – | – | –
8 | CCOC(=O)c1c(C)nc2sc(C(=O)c3ccc(OC)cc3)c(N)c2c1-c1cccc(OC)c1 | No effect | – | – | – | – | – | No effect | No effect
9 | COc1ccc(C(=O)c2sc3nc(C)c(C(C)=O)c(-c4cc(OC)c(OC)c(OC)c4)c3c2N)c(OC)c1 [Compound 4, 5-Acetyl-3-amino-2-(2,4-dimethoxybenzoyl)-6-methyl-4-(3,4,5-trimethoxyphenyl)-thieno[2,3-b]pyridine] | – | – | 8.5 ± 0.7 | 7.7 ± 0.4 | – | – | – | No effect
10 | CCOC(=O)c1c(-c2cc(OC)c(OC)c(OC)c2)nc2sc(C(=O)c3cc(OC)c(OC)c(OC)c3)c(N)c2c1-c1cc(OC)c(OC)c(OC)c1 [Compound 40, 3-Amino-4,6-bis-(3,4,5-trimethoxyphenyl)-2-(3,4,5-trimethoxybenzoyl)-thieno[2,3-b]pyridine-5-carboxylic acid ethyl ester] | No effect | 0.4 ± 0.1 | 3.4 ± 0.4 | – | – | – | – | –
11 | COC(=O)c1c(C)nc2sc(C(=O)c3cc(OC)c(OC)c(OC)c3)c(N)c2c1-c1cc(OC)c(OC)c(OC)c1 | No effect | – | – | – | – | – | No effect | No effect
12 | COc1ccc(C(=O)c2sc3nc(C)c(C(C)=O)c(-c4ccc(OC)c(OC)c4)c3c2N)cc1 [Compound 1, 5-Acetyl-3-amino-4-(3,4-dimethoxyphenyl)-2-(4-methoxybenzoyl)-6-methyl-thieno[2,3-b]pyridine] | – | 9.1 ± 0.1 | 11.5 ± 0.5 | 8.9 ± 1.4 | – | – | – | –
13 | COc1ccc(C(=O)c2sc3nc(C)c(C(C)=O)c(-c4ccc(OC)c(OC)c4)c3c2N)c(OC)c1 [Compound 2, 5-Acetyl-3-amino-2-(2,4-dimethoxybenzoyl)-4-(3,4-dimethoxyphenyl)-6-methyl-thieno[2,3-b]pyridine] | – | 5.5 ± 0.4 | 13.8 ± 0.3 | 11.8 ± 1.2 | – | – | – | –
14 | CCOC(=O)c1c(C)nc2sc(C(=O)c3ccc(OC)cc3)c(N)c2c1-c1ccc(OC)c(OC)c1 [Compound 20, 3-Amino-4-(3,4-dimethoxyphenyl)-2-(4-methoxybenzoyl)-6-methylthieno[2,3-b]-pyridine-5-carboxylic acid ethyl ester] | – | 1.1 ± 0.3 | 9.9 ± 1.6 | 9.4 ± 1.6 | – | – | – | –
15 | CCOC(=O)c1c(C)nc2sc(C(=O)c3ccc(OC)cc3OC)c(N)c2c1-c1ccc(OC)c(OC)c1 [Compound 21, 3-Amino-2-(2,4-dimethoxybenzoyl)-4-(3,4-dimethoxyphenyl)-6-methyl-thieno[2,3-b]pyridine-5-carboxylic acid ethyl ester] | – | 2 ± 0.4 | 8.2 ± 1 | 8 ± 0.2 | – | – | – | –
16 | COC(=O)c1c(C)nc2sc(C(=O)c3ccc(OC)cc3)c(N)c2c1-c1cc(OC)c(OC)c(OC)c1 [Compound 10, 3-Amino-2-(4-methoxybenzoyl)-6-methyl-4-(3,4,5-trimethoxyphenyl)thieno[2,3-b]pyridine-5-carboxylic acid methyl ester] | – | 4 ± 0.8 | 1.5 ± 0.2 | 4.5 ± 0.5 | – | – | – | –
17 | COC(=O)c1c(C)nc2sc(C(=O)c3ccc(OC)cc3OC)c(N)c2c1-c1cc(OC)c(OC)c(OC)c1 [Compound 11, 3-Amino-2-(2,4-dimethoxybenzoyl)-6-methyl-4-(3,4,5-trimethoxyphenyl)thieno[2,3-b]pyridine-5-carboxylic acid methyl ester] | – | 1.7 ± 0.2 | 6.9 ± 0.9 | 7.1 ± 0.6 | – | – | – | –
18 | CCOC(=O)c1c(C)nc2sc(C(=O)c3ccc(OC)cc3)c(N)c2c1-c1ccc(Cl)cc1 [Compound 28, 3-Amino-4-(4-chlorophenyl)-2-(4-methoxybenzoyl)-6-methylthieno[2,3-b]-pyridine-5-carboxylic acid ethylester] | No effect | 2.7 ± 0.6 | 10 ± 0.2 | – | – | – | – | –
19 | COC(=O)c1c(C)nc2sc(C(=O)c3ccc(F)cc3)c(N)c2c1-c1cc(OC)c(OC)c(OC)c1 [Compound 8, 3-Amino-2-(4-fluorobenzoyl)-6-methyl-4-(3,4,5-trimethoxyphenyl)thieno[2,3-b]-pyridine-5-carboxylic acid methyl ester] | – | 2.7 ± 0.5 | 11 ± 1 | 10.4 ± 1.2 | – | – | – | –
20 | CCOC(=O)c1c(C)nc2sc(C(=O)c3ccc(F)cc3)c(N)c2c1-c1ccc(OC)c(OC)c1 [Compound 18, 3-Amino-4-(3,4-dimethoxyphenyl)-2-(4-fluorobenzoyl)-6-methylthieno[2,3-b]-pyridine-5-carboxylic acid ethyl ester] | – | 3 ± 0.8 | 26.7 ± 0.9 | 22.1 ± 2 | – | – | – | –
21 | CCOC(=O)c1c(C)nc2sc(C(=O)c3ccc(Cl)cc3)c(N)c2c1-c1ccc(OC)c(OC)c1 [Compound 19, 3-Amino-2-(4-chlorobenzoyl)-4-(3,4-dimethoxyphenyl)-6-methylthieno[2,3-b]-pyridine-5-carboxylic acid ethyl ester] | No effect | 5.7 ± 0.9 | 28.4 ± 2.5 | – | – | – | – | –
22 | CCOC(=O)c1c(C)nc2sc(C(=O)c3ccc(Cl)cc3)c(N)c2c1-c1cc(OC)c(OC)c(OC)c1 [Compound 23, 3-Amino-2-(4-chlorobenzoyl)-4-(3,4,5-trimethoxyphenyl)-6-methylthieno[2,3-b]-pyridine-5-carboxylic acid ethyl ester] | – | 8.1 ± 1.3 | 3.2 ± 0.7 | 30.4 ± 1.3 | – | – | – | –
23 | COCCOC(=O)c1c(C)nc2sc(C(=O)c3cccc(OC)c3)c(N)c2c1-c1cc(OC)c(OC)c(OC)c1 [Compound 33, 3-Amino-2-(3-methoxybenzoyl)-6-methyl-4-(3,4,5-trimethoxyphenyl)thieno[2,3-b]-pyridine-5-carboxylic acid 2-methoxyethyl ester] | No effect | 1.2 ± 0.3 | 1.3 ± 0.1 | – | – | – | – | –

Reference: US9908893B2, “Thieno [2,3-b] pyridines as multidrug resistance modulators” (Latvian Institute of Organic Synthesis, priority 2013, dated 2018)
